The record followed here is US9056916B2, “Method and assay kit for detection of toxicity induced by pyrrolizidine alkaloids” (priority 2012, dated 2015).

Data set [1] deals with pyrrole-derived protein adducts in mouse liver. The data set can be described thus: Immunohistochemical staining of mouse liver with purified N-antibody. The data set is classed as in vivo. The settings on record: 100 mg/kg. From the text: The immunochemihistological staining results further confirms that the purified N-antibody was specific to recognize the pyrrole moiety, especially the pyrrole-derived protein adducts with N-linkage.

The test system of data set [2] is pyrrole-protein adducts in mouse liver. The data set can be described thus: Western blot of mouse liver samples detected by antiserum II. The data set is classed as in vivo. The conditions noted are these: mice, 100 or 150 mg/kg; bands between 20-40 KDa, not in control mice. The procedure: The hepatotoxicity of pyrrolizidine alkaloids on mice was also assessed by antiserum II, using Western blot and competitive Western blot.

The test system of a further data set is male CD-1 mice. The data set can be described thus: Hepatotoxicity in mice (serum ALT, H&E staining). The data set is classed as in vivo, mouse. The conditions noted are these: 100 and 150 mg/kg.
Data set [3] relates to pyrrole-protein adducts in rat liver. The data set can be described thus: Western blot of rat liver samples detected by antiserum II. In kind it is in vivo. The conditions noted are these: rats, retrorsine 280 mg/kg or G. segetum extract 192 mg/kg oral; especially bands at about 45 and 98 KD. The procedure:
Male SD rats (body weight, 190-220 g) were supplied by the Laboratory Animal Services Centre at The Chinese University of Hong Kong. Animals were placed in a controlled environment (50% relative humidity, temperature of 25° C. and dark/light cycles) and allowed access to standard rat chow and water. Herbal extracts were prepared via extracting the powdered herbal samples with distilled water for three times followed by drying the combined water extracts under reduced pressure. The obtained residues were reconstituted into the aqueous sulfuric acid solution and extracted with hexane to remove non-alkaloid components. The aqueous layer was adjusted to pH 9-10 and then extracted with dichloromethane for three times. […] The total content of toxic pyrrolizidine alkaloids in the extracts was quantified by our previously developed HPLC analytical methods. […] Serum ALT (alanine aminotransferase) activities were measured following the Sigma's protocol. Liver histomorphology was assessed by standard hematoxylin-eosin (H&E) staining procedures.
In Western blot assay, rat liver lysates were loaded and resolved by 7.5% SDS-PAGE and then transferred to nitrocellulose membranes. […] After washing, protein bands were detected by chemiluminescence with an ECL detection kit. β-Actin served as internal standard. […] The pyrrole-protein adducts were determined by the antiserum II.

Take retrorsine: the “liver injury in liver slice” value in data set [1] is “liver injury was observed”. Besides, in data set [1] (purified N-antibody), the “intensity of stained spots (pyrrole-derived protein adduction) versus control sample” value was “intensity significantly higher”. Moreover, the “protein bands in liver samples detected by antiserum II” value in data set [2] is reported as “some protein bands were detected”. For the same substance, in the data set with male CD-1 mice, the “liver H&E staining histomorphological assessment” value is “liver injury observed” and the “serum ALT” value is “significant serum ALT elevation”. Further, the “pyrrole-protein adduct bands in liver samples” value in data set [3] is reported as “Several bands, which were not found in control rats, were detected”.
